This passage reports IC50 results from patent publication US20060079453A1.

Some targets named below: HLA-A*3002 (human); HLA-A*2902 (human); HLA-A*0101 (human).
Holding throughout (experiment): competition, purified HLA

Where two headings read alike, the source gives them in different places.

As to YTAGPGPGY (modifications not checked), the IC50 in the assay with HLA-A*3002 (human) was determined as 0.755 µM.

Regarding EVGPGPGLY (modifications not checked), in the assay with HLA-A*2902 (human), the IC50 is 18.2 µM.

For the molecule ELSSALEIPY (modifications not checked), the IC50 with HLA-A*3002 (human) is 4.47 µM.

LSVHSIQNDY (modifications not checked): in the assay with HLA-A*0101 (human), the 50% inhibitory concentration (IC50) was 0.279 µM.

In the assay with HLA-A*2902 (human), EYRHYCYSLY (modifications not checked) had an IC50 of 0.198 µM.

Turning to RFHNIRGRW (modifications not checked), the IC50 in the assay with HLA-A*0101 (human) (remark: other sources report otherwise) was 52.9 µM.

In the assay with HLA-A*2902 (human), RQDILDLWVY (modifications not checked) gave a half-maximal inhibitory concentration (IC50) of 13.9 µM.
